Measurements published in patent US5849525A, “Compositions corresponding to a proton-coupled peptide transporter and methods of making and using same” (Brigham and Women's Hospital, Inc., priority 1995, dated 1998).

Molecular target: T1, proton-coupled peptide transporter (Oryctolagus cuniculus, UniProt P36836)
T1 construct: Xenopus laevis oocytes were injected with cRNA coding the proton-coupled peptide transporter; expressed in transfected cells; host or cells: Xenopus laevis oocytes injected with cRNA transcribed in vitro from the cloned cDNA
T1 sequence (P36836 1-707): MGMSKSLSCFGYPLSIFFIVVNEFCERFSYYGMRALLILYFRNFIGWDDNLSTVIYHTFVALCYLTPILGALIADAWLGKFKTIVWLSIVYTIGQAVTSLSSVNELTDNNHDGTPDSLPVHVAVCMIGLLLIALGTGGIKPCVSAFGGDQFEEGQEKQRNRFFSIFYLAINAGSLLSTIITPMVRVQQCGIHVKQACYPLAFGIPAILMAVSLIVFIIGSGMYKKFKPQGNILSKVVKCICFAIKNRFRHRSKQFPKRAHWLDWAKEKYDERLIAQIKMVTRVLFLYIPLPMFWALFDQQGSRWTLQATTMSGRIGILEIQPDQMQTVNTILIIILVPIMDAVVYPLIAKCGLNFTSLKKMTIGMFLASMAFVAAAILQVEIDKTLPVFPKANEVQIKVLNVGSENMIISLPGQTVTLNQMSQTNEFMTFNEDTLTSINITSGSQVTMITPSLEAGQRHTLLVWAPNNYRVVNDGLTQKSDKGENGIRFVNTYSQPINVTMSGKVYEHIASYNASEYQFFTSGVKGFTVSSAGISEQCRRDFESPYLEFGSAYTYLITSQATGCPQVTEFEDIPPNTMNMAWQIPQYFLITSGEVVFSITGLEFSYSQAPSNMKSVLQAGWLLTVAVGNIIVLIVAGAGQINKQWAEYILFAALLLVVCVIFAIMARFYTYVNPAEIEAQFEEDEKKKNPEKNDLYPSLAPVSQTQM
Assay: Two-electrode voltage clamp of Xenopus laevis oocytes injected with transporter cRNA: substrate-evoked inward currents and Km
Assay type: cell-based, rabbit
Conditions: uptake solution pH 5.5
Text: These oocytes were subjected to two electrode voltages clamp analysis (Gene Clamp 500, Axon Instruments, California) in the manner described in Kanaisy & Hediger, M. A. Nature 360, 467-71 (1992).
FIG. 9 depicts electrophysiological measurements of transformed cocytes as a percent of glycyl-sarcosine evoked current. Data representing glycyl-sarcosine are depicted as a solid black bar. Data representing peptide are depicted with dotted bars. Data representing antibiotics are depicted with hatched bars.
By altering peptide concentrations, current amplitudes for different compositions, Km values were determined.

C[C@H](N)C(=O)N1CCC[C@H]1C(=O)NCC(=O)O [alanylprolinyl-glycine]
substrate-evoked inward current: inward current
